Assay results taken from patent publication US10370380B2, “Octahydropyrrolo[3,4-c]pyrrole derivatives and uses thereof” (Sunshine Lake Pharma Co., Ltd., priority 2015, dated 2019).

Chains of the proteins cited; added tags and fusions are not shown.
UniProt O43613, whole entry: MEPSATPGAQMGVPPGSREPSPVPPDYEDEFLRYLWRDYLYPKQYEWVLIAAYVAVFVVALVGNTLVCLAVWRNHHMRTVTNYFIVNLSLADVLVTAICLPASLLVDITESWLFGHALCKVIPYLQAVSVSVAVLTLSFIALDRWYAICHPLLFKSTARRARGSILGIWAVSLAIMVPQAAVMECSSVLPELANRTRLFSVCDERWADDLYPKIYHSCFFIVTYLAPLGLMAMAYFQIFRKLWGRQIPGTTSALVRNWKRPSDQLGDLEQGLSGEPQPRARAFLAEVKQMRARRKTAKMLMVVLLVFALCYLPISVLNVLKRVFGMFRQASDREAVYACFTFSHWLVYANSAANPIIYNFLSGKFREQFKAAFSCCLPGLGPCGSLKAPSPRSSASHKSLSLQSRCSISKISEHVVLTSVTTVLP

Target: T1, humanized OX1 receptor (Homo sapiens, UniProt O43613)
T1 construct: expressed in transfected cells; host or cells: CHO (Chinese hamster ovary) cells
Experiment: Antagonistic effect on humanized OX1 receptor, calcium flux by fluorescence detection in CHO cells
Format: cell-based
Description: The capability of the compounds provided herein to antagonize humanized OX1 receptor expressed in Chinese hamster ovary (CHO) cells was evaluated by the influence of the compounds disclosed herein on calcium flux in cells induced by agonist detected by a method of fluorescence detection. The cells were suspended in DMEM culture medium (invitrogen), and then added to a microplate with an average density of 2×10^4 cells/well. The Hank's balanced salt solution (pH 7.4) containing fluorescent probes (Fluo4 NW, Invitrogen), probenecid (invitrogen), 20 mM hydroxyethyl piperazine acetic sulfuric acid (invitrogen) was added to the above microplate, and then incubated together with the cells at 37° C. for 60 min, further incubated at 22° C. for 15 min. The microplate was placed in a microplate reader (CellLux, PerkinElmer), and to which was added the test compound or reference antagonist or Hank's balanced salt solution, 5 min later, 3 nM of orexin A or Hank's balanced salt solution (as a blank contrast) was added. […] The experimental results were expressed as an inhibition percentage relative to a control group (the group with 3 nM of orexin A).
The standard reference antagonist is SB334867, and IC50 values were calculated by the dose-effect curve obtained from a series of concentrations of the experimental test.

Question: `Cc1ccc(-n2nccn2)c(C(=O)N2CCN(c3nc4cc(Cl)ccc4o3)CC[C@H]2C)c1` [suvorexant, reference compound] was tested. Which IC50 did it give?
Answer: 341 nM
